# Test results from patent US5795977A, “Water soluble adenosine kinase inhibitors” (Metabasis Therapeutics, Inc., priority 1996, dated 1998).
# Where a name gives a salt, the structure may show the parent alone.
# System: Female SA rats
# Test: Liver toxicity assay
# Assay type: in vivo
# Conditions: rat, i.v. infusion, total dose 75 μmole/kg, serum
# Protocol: Female SA rats (150-200 g) are anesthetized with halothane and cannulated via the internal jugular vein. The animals are allowed to recover for 3 days. At this time, 37.5 μmole/kg of an AK inhibitor is dissolved in 50% PEG400 and infused through the jugular catheter over 20 minutes. Twelve hours later, an additional 37.5 μmole/kg is infused over 20 minutes (total dose =75 μmole/kg). […] Liver enzymes (serum glutamic-oxaloacetic transaminase (SGOT), serum glutamic-pyruvic transaminase (SGPT), alkaline phosphatase) and total bilirubin in the serum samples are determined by a commercial laboratory.
row,Structure (SMILES),Total Bilirubin [mg/dL]
1,"C[C@H]1O[C@@H](n2cc(-c3ccccc3)c3c(Nc4ccc(CN(C)C)cc4)ncnc32)[C@H](O)[C@@H]1O [Compound 1, 4-N-(4-(N,N-Dimethylaminomethyl)phenyl)amino-5-phenyl-7-(5-deoxy-β-D-ribofuranosyl)pyrrolo[2,3-d]pyrimidine]",0.13

# System: male SA rats (maximal electroshock seizures)
# Test: Anticonvulsant activity, maximal electroshock seizures (MES)
# Assay type: in vivo
# Conditions: rat, ip; > or < = fewer or more than 50% protected at 5 mg/kg screen; >> = no activity at the stated dose
# Protocol: The anticonvulsant activity of the tested compounds was evaluated in male SA rats (100-150g, Simonsen) using the maximal electroshock (MES) model described in Swinyard et al., Antiepileptic Drugs, 3d Ed. at 85-102 (Levy, et al., eds.), NY: Raven Press (1989). The rats were maintained on a 12/12 light/dark cycle in temperature controlled facilities with free access to food and water. For p.o. administration, the animals are fasted overnight, prior to the experiment. One to two hours prior to seizure testing, the animals were injected interperitoneally (ip) or orally (per os, po) with one of various doses of test compound dissolved in DMSO or PEG 400.
# This endpoint was expressed as the percentage of animals in which the response was inhibited.
row,Structure (SMILES),ED50 at 5 mg/kg [mg/kg]
1,"C[C@H]1O[C@@H](n2cc(-c3ccccc3)c3c(Nc4ccc(CN(C)C)cc4)ncnc32)[C@H](O)[C@@H]1O [Compound 1, 4-N-(4-(N,N-Dimethylaminomethyl)phenyl)amino-5-phenyl-7-(5-deoxy-β-D-ribofuranosyl)pyrrolo[2,3-d]pyrimidine]",> 5
2,"C[C@H]1O[C@@H](n2cc(-c3ccccc3)c3c(Nc4ccc(CCO)cc4)ncnc32)[C@H](O)[C@@H]1O [Compound 2, 4-N-(4-(2-Hydroxyethyl)phenyl)amino-5-phenyl-7-(5-deoxy-β-D-ribofuranosyl)pyrrolo[2,3-d]pyrimidine]",5
3,"C[C@H]1O[C@@H](n2cc(-c3ccccc3)c3c(Nc4ccc(CCN5CCOCC5)cc4)ncnc32)[C@H](O)[C@@H]1O [Compound 3, 4-N-[4-(2-(4-morpholino)ethyl)phenyl]amino-5-phenyl-7-(5-deoxy-β-D-ribofuranosyl)pyrrolo[2,3-d]pyrimidine]",< 5
4,"C[C@H]1O[C@@H](n2cc(-c3ccccc3)c3c(Nc4ccc(C(=N)N)cc4)ncnc32)[C@H](O)[C@@H]1O [Compound 39, 4-N -(4-amidinophenyl)amino-5-phenyl-7-(5-deoxy-1-β-ribofuranosyl)pyrrolo[2,3-d]pyrimidine]",> 5
5,"C[C@H]1O[C@@H](n2cc(-c3ccccc3)c3c(Nc4ccc(OCC(=O)N5CCNCC5)cc4)ncnc32)[C@H](O)[C@@H]1O [Compound 196, 4-N-[4-(4-piperazinocarbonylmethyloxy)phenyl]amino-5-phenyl-7-(5-deoxy-1-β-D-ribofuranosyl)pyrrolo(2,3-d)pyrimidine]",> 5
6,"C[C@H]1O[C@@H](n2cc(-c3ccccc3)c3c(Nc4ccc(C(=O)O)cc4)ncnc32)[C@H](O)[C@@H]1O [Compound 209, 4-N-(4carboxyphenyl)amino-5-phenyl-7-(5-deoxy-1-β-D-ribofuranosyl)pyrrolo[2,3-d]pyrimidine]",> 5
7,"C[C@H]1O[C@@H](n2cc(-c3ccccc3)c3c(Nc4ccc(C(=O)N5CCNCC5)cc4)ncnc32)[C@H](O)[C@@H]1O [Compound 210, 4-N-[4-(4-piperazinocarbonylphenyl)]amino-5-phenyl-7-(5-deoxy-1-β-D-ribofuranosyl)pyrrolo[2,3-d]pyrimidine]",> 5
8,CCN(CC)CCNC(=O)c1ccc(Nc2ncnc3c2c(-c2ccccc2)cn3[C@@H]2O[C@H](C)[C@@H](O)[C@H]2O)cc1 [Compound 211],> 5
9,C[C@H]1O[C@@H](n2cc(-c3ccccc3)c3c(Nc4ccc(C(=O)NN5CCCCC5)cc4)ncnc32)[C@H](O)[C@@H]1O [Compound 212],> 5
10,"C[C@H]1O[C@@H](n2cc(-c3ccccc3)c3c(Nc4ccc(CCS(=O)(=O)O)cc4)ncnc32)[C@H](O)[C@@H]1O [Compound 265, 4-N[4-(2-Sulfonyloxyethyl)phenylamino]-5-phenyl-7-(5-deoxy-1-β-D-ribofuranosyl)pyrrolo[2,3-d]pyrimidine]",> 5
11,"C[C@H]1O[C@@H](n2cc(-c3ccccc3)c3c(Nc4ccc(CCNC(=N)N)cc4)ncnc32)[C@H](O)[C@@H]1O [Compound 267, 4-N-[4-(2-Guanidinoethyl)phenyl]amino-5-phenyl-7-(5-deoxy-1-β-D-ribofuranosyl)pyrrolo[2,3-d]pyrimidine hydrochloride]",< 5
12,"C[C@H]1O[C@@H](n2cc(-c3ccccc3)c3c(Nc4ccc(NC(=N)N)cc4)ncnc32)[C@H](O)[C@@H]1O [Compound 269, 4-N-(4-Guanidinophenyl)amino-5-phenyl-7-(5-deoxy-1-β-D-ribofuranosyl)pyrrolo[2,3-d]pyrimidine]",5
